## Yeast mating assay 2: variants of the scFv Ab-91

Reference: Engelhart et al. 2022, doi:10.1038/s41597-022-01779-4. File: FLAb, binding data.

Target peptide (SARS-CoV-2 spike, HR2 region): PDVDLGDISGINAS

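The starting antibody came from a phage panning campaign against this peptide. AAYL51 was designed without a model: most single CDR substitutions and a random sample of double and triple ones. Affinity was read by AlphaSeq, a pooled yeast mating assay with surface-displayed partners. Pairs that bind mate more often; barcode pairs of the diploids are counted by sequencing. Each replicate has its own calibration line, from reference interactions of the BCL2 family. Each pool was mated in three replicate cultures.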

Parent: Ab-91, a human scFv built as VL, three GGGGS repeats, VH. Only the CDRs of the heavy chain vary.
VL: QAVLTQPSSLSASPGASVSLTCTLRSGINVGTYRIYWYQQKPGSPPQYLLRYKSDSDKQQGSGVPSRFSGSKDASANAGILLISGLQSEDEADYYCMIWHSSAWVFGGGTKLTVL
VH: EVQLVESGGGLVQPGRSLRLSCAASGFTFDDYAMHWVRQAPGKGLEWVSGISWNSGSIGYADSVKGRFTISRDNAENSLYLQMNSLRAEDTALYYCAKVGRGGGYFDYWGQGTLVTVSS

Each variant is given by its three heavy chain CDRs, as the data file delimits them; those of the parent are GFTFDDYAMH, GISWNSGSIGYADSVK, VGRGGGYFDY. This list gathers variants with a substitution at H35 (VH, numbered from residue 1). The Kd shown is the geometric mean over detected replicates; a lower Kd is a better binder. A pair that was not seen in any replicate is written "nd"; this usually means weak binding, but a binder can also be missed. Nonspecific signal, from three strains lacking the peptide, appeared in 21% of pairings of library AAYL51, centred on 34 µM (5% of these signals below 1.8 µM); values are not corrected for it. The control count says in how many pairings with the empty strains this scFv gave a signal.

The variant GFIFDDYAMQ / GISWNSGSIGYANSVK / VGRGGGYFDY showed nd (0 of 3 replicates; controls 0 of 9).
The variant GFTFDDYAKQ / GISWNSGSIGYADFVK / VGRGGGYFDY showed 47 µM (2 of 3 replicates; controls 2 of 9).
The variant GFKFDDYAMS / GWSWNSGSIGYADSVK / VGRGGGYFDY showed 19 µM (2 of 3 replicates; controls 0 of 9).
The variant GFTFDDYAMY / GISWNSGSIGYADSVK / VGRGGGYFDY showed nd (0 of 3 replicates; controls 0 of 9).
The variant GFTFDDYAMV / GISWNQGSIGYADSVK / VGRGGGRFDY showed 65 µM (1 of 3 replicates; controls 5 of 9).
The variant GFTFDDYAMA / GISWNSGNIGYADSDK / VGRGGGYFDY showed nd (0 of 3 replicates; controls 0 of 9).
The variant GFTFDDYAMR / GISWNSGSIGYADSVK / VGRGGNYFDY showed nd (0 of 3 replicates; controls 1 of 9).
The variant GFTFDDYAMD / GISWWSGSIGYADSVK / VNRGGGYFDY showed 170 µM (3 of 3 replicates; controls 3 of 9).
The variant GFTFDDYAMS / GISWNSGSITYADSVK / VGRGGGYFHY showed nd (0 of 3 replicates; controls 3 of 9).
The variant QFTFDDYAMI / GISWNSGSIGYADSVK / VGRGGGYFDC showed nd (0 of 3 replicates; controls 2 of 9).
The variant GCTFDDYAMF / GISWNSGSIGYADSVK / VGRGGGYFDY showed nd (0 of 3 replicates; controls 0 of 9).
The variant GFTFDDYAMM / GISWNSGSIGYADSVK / VGRGGGYFDS showed 170 µM (3 of 3 replicates; controls 9 of 9).
The variant GFTQDDYAMR / GIQWNSGSIGYADSVK / VGRGGGYFDY showed 180 µM (2 of 3 replicates; controls 4 of 9).
The variant GFHFDDPAMV / GISWNSGSIGYADSVK / VGRGGGYFDY showed 33 µM (1 of 3 replicates; controls 1 of 9).
The variant GFTFDDYAAL / GISWNAGSIGYADSVK / VGRGGGYFDY showed nd (0 of 3 replicates; controls 0 of 9).
The variant GFTFDDYAMK / GISWNKGSIGYADSVK / VGRGGGYFDY showed nd (0 of 3 replicates; controls 0 of 9).
The variant GFTFDDYAMT / GIQWNSGSIGYADSVK / VGRGGGYFMY showed nd (0 of 3 replicates; controls 0 of 9).
The variant GFTFDDYAMC / GISWNSLSIGYADSVN / VGRGGGYFDY showed 19 nM (3 of 3 replicates; controls 1 of 9).
The variant GFTFIDYAMI / GISWNSGSQGYADSVK / VGRGGGYFDY showed nd (0 of 3 replicates; controls 1 of 9).
The variant YFTFDDYAML / GISWNSGSIGYADSVK / VGRGGGYFDY showed nd (0 of 3 replicates; controls 0 of 9).
The variant GFTFDDYAMK / GIYWNSGSIHYADSVK / VGRGGGYFDY showed nd (0 of 3 replicates; controls 0 of 9).
The variant GFTFDDYAMG / GISWNSGSIGYADSVK / KGKGGGYFDY showed 19 µM (1 of 3 replicates; controls 4 of 9).
The variant GFKFDDYAMK / GISWNSGSIGYADSGK / VGRGGGYFDY showed nd (0 of 3 replicates; controls 0 of 9).
The variant GFTFDDEAMT / GISWNSGFIGYADSVK / VGRGGGYFDY showed 6.8 µM (1 of 3 replicates; controls 3 of 9).
The variant GFTFDDYAMV / GIIWNSGSIGYADSVK / VFRGGGYFDY showed 180 µM (3 of 3 replicates; controls 2 of 9).
The variant GFTFDDYAMD / GISWNSGSEGYADSVK / VGRGGGYFDY showed 240 nM (3 of 3 replicates; controls 8 of 9).
The variant GFTFDDYAMK / GISWNSGSIGYADSVK / FGRGGGVFDY showed nd (0 of 3 replicates; controls 1 of 9).
The variant GFTFDDYAML / GISWNSGSIGDADSVK / VGRGGTYFDY showed 43 µM (2 of 3 replicates; controls 3 of 9).
The variant GFGFDDYAEN / GISWNSGSIGYADSVK / VGRGGGYFDY showed 4.6 µM (1 of 3 replicates; controls 3 of 9).
The variant TFTFDDYAMR / GISWNSGSIGYADSVK / VGAGGGYFDY showed 440 µM (1 of 3 replicates; controls 4 of 9).
The variant GITFDDYAMI / GIEWNSGSIGYADSVK / VGRGGGYFDY showed nd (0 of 3 replicates; controls 3 of 9).
The variant GFTFEDYAMA / GISWNSYSIGYADSVK / VGRGGGYFDY showed nd (0 of 3 replicates; controls 0 of 9).
The variant GFTFDDYAMT / GISRNSGSIGYADSVK / VGIGGGYFDY showed 1.3 µM (1 of 3 replicates; controls 0 of 9).
The variant GFTFDDYAMC / GISWNSGSIGYADSVK / PGRGGGYFDI showed nd (0 of 3 replicates; controls 2 of 9).
The variant GFTFDDYAMI / WISWNSGSIGYADSVK / VGTGGGYFDY showed nd (0 of 3 replicates; controls 0 of 9).
The variant GNTFDDYAMR / GISWCSGSIGYADSVK / VGRGGGYFDY showed 4.4 µM (1 of 3 replicates; controls 3 of 9).
The variant GFTFDDYAQR / GISWNSGSIGYADSVL / VGRGGGYFDY showed 1.9 µM (1 of 3 replicates; controls 1 of 9).

The first 4 entries again:

{"CDR-H1": "GFIFDDYAMQ", "CDR-H2": "GISWNSGSIGYANSVK", "CDR-H3": "VGRGGGYFDY", "Kd (apparent)": "nd", "replicates with signal": "0 of 3", "signal with controls": "0 of 9"}
{"CDR-H1": "GFTFDDYAKQ", "CDR-H2": "GISWNSGSIGYADFVK", "CDR-H3": "VGRGGGYFDY", "Kd (apparent)": "47 µM", "replicates with signal": "2 of 3", "signal with controls": "2 of 9"}
{"CDR-H1": "GFKFDDYAMS", "CDR-H2": "GWSWNSGSIGYADSVK", "CDR-H3": "VGRGGGYFDY", "Kd (apparent)": "19 µM", "replicates with signal": "2 of 3", "signal with controls": "0 of 9"}
{"CDR-H1": "GFTFDDYAMY", "CDR-H2": "GISWNSGSIGYADSVK", "CDR-H3": "VGRGGGYFDY", "Kd (apparent)": "nd", "replicates with signal": "0 of 3", "signal with controls": "0 of 9"}